# According to US9624237B2 (priority 2015, dated 2017):
# Test system: LPS induced NO production in RAW264.7 macrophages
# Conditions: 1 uM pretreatment 1 h, 100 ng/mL LPS 24 h; unstimulated 3.47±0.58, LPS alone 31.74±0.31 uM
smiles,measurement,value
"C[C@@H]1C[C@H]2[C@@H]3CCC4=CC(=O)C=C[C@]4(C)[C@@]3(F)[C@@H](O)C[C@]2(C)[C@@]1(O)C(=O)CO [DEX, dexamethasone]",nitrite level in the supernatant of LPS stimulated RAW264.7 cells,16.63 ± 0.20 µM
